# Test results: ChEMBL document CHEMBL4732024, “Second-generation tricyclic pyrimido-pyrrolo-oxazine mTOR inhibitor with predicted blood-brain barrier permeability” (RSC Med Chem, 2021)
# Species on record: Homo sapiens
# Assay: Selectivity index, ratio of Ki for inhibition of alexa fluor 647-labeled kinase tracer 314 binding to recombinant N-terminal His6-tagged p110alpha (unknown origin) to Ki for inhibition of alexa fluor 647-labeled kinase tracer 314 binding to recombinant N-terminal GST-fused mTOR (1360 to 2549 residues) (unknown origin)
row,SMILES,Ratio Ki
1,C[C@@H]1COCCN1c1nc(-c2cnc(N)cc2C(F)F)nc2c1C[C@@H]1COCCN21,19
2,C[C@@H]1COCCN1c1nc(-c2nnc(N)s2)nc2c1C[C@@H]1COCCN21,189
3,C[C@@H]1COCCN1c1nc(-c2cnc(N)nc2C(F)F)nc2c1C[C@@H]1COCCN21,0.5
4,C[C@@H]1COCCN1c1nc(-c2cnc(N)s2)nc2c1C[C@@H]1COCCN21,166
5,C[C@@H]1COCCN1c1nc(-c2cnc(N)nc2C(F)(F)F)nc2c1C[C@@H]1COCCN21,0.22
6,C[C@@H]1COCCN1c1nc(-c2cnc(N)cc2C(F)(F)F)nc2c1C[C@@H]1COCCN21,2.3
7,C[C@@H]1COCCN1c1nc(-c2ccc(N)nn2)nc2c1C[C@@H]1COCCN21,77
8,C[C@@H]1COCCN1c1nc(-c2nc(N)ns2)nc2c1C[C@@H]1COCCN21,14
